Sequences of proteins named here, by UniProt entry; tags and fusion partners are left off. A change or cut given only in a name is not applied to a line headed by its entry.
UniProt P15144: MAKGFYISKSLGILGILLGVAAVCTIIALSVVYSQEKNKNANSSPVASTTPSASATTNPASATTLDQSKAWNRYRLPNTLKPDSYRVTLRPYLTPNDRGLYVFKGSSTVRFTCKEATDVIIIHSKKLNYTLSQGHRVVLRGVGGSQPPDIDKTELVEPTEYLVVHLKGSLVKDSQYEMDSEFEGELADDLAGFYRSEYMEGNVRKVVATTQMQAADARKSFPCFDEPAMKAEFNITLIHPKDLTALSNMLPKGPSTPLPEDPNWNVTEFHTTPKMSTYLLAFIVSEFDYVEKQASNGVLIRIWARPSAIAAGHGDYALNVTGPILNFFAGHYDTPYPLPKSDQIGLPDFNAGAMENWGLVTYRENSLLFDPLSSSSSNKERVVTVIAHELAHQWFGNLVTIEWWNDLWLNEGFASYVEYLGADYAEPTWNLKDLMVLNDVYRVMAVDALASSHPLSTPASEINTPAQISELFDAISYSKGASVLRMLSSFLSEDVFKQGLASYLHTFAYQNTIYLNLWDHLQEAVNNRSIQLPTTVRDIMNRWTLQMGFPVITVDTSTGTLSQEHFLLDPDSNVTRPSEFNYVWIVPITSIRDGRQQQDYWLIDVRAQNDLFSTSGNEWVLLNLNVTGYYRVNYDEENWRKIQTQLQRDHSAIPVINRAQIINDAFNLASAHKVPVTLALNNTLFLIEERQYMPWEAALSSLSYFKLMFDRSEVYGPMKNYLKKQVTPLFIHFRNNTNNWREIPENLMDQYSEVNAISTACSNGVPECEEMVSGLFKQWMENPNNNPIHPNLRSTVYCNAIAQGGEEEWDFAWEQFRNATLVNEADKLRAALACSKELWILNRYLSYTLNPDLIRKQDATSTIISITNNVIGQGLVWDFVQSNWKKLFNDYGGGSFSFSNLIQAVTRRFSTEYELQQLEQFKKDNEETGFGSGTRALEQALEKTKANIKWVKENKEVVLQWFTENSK

In ChEMBL document CHEMBL2413034, “Novel β-dicarbonyl derivatives as inhibitors of aminopeptidase N (APN)” (Bioorg Med Chem Lett, 2013):

Target: Aminopeptidase N (Homo sapiens, UniProt P15144)
Experiment: Inhibition of aminopeptidase N (unknown origin)

- IC50: 10 µM
SMILES: COc1cc(/C=C/C(=O)CC(=O)/C=C/c2ccc(O)c(OC)c2)ccc1O [CURCUMIN]
